Data as given in PubChem BioAssay AID493244 (The Scripps Research Institute Molecular Screening Center, 2011).
This is a selection; strong and weak results do not stand in their true shares. Activity calls are given as the source filed them.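 The calls were made as follows: active = inhibition above the mean inhibition of all tested compounds plus 3 SD (cut at about 17% in these data); inactive = the rest.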

biological target: Troponin I, cardiac muscle (Homo sapiens) + Troponin T, cardiac muscle (Homo sapiens) + Troponin C, slow skeletal and cardiac muscles (Homo sapiens) (UniProt P19429+P45379+P63316); assay: calcium desensitizers of cardiac thin filaments – biochemical, IANBD-TnC fluorescence, EC70 calcium, primary screen (AID 493244); conditions: IANBD-labeled cardiac RTF, Ca2+ fluorescence; at 7.15 µM; stronger effect = higher value;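 also: assay run at fixed EC70 calcium of 1.6 mM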

| SMILES | inhibition |
| --- | --- |
| COc1cc(C2NCCC3(OCCO3)C2(C)C)cc(OC)c1OC (centres undefined) | inactive: 0.08% |
| CCOP(=O)(Nc1cccc2ccccc12)OCC | inactive: -5.95% |
| CCC1=CC2Cc3nc4ccc(Cl)cc4c(N)c3C(C1)C2 (centres undefined) | inactive: -3.51% |
| O=P1(Nc2ccccn2)COc2ccccc2OC1 | inactive: 9.33% |
| CCOP(=O)(NC(=NC(C)c1ccccc1)NC(C)c1ccccc1)OCC (centres undefined) | inactive: -10.1% |
| CCOP(=O)(Nc1ccc(C)cn1)OCC | inactive: -7.8% |
| Clc1n[nH]nc1-c1nn[nH][15n]1 | inactive: 7.63% |
| CC(C)(C)C(=O)NC(Sc1ncccn1)C(Cl)(Cl)Cl (centres undefined) | inactive: 4.84% |
| COc1ccccc1CNC(=O)COC(=O)C(O)(c1ccccc1)c1ccccc1 | inactive: 3.68% |
| CN(C(=O)Cc1ccc(Cl)c(Cl)c1)[C@@H]1CCCC[C@H]1N1CCCC1 | inactive: -3.8% |
| CC(C)/C=N\N=C(\N)N[N+](=O)[O-] | inactive: -12.9% |
| CC1(CBr)Cn2c(nc3ccccc3c2=O)S1 (centres undefined) | inactive: -7.26% |
| Cc1nn(-c2ccccc2)c2c1P(=O)(N1CCOCC1)N(C)C(c1ccccc1)=N2 (centres undefined) | inactive: -4.6% |
| Cc1ccc(C(=O)OC2CN3CCC2CC3)cc1 (centres undefined) | inactive: 0.74% |
| CC1CCC(C(C)C)C(OP(=O)(Nc2ccccn2)c2ccccc2)C1 (centres undefined) | inactive: -4.5% |
| CN(C)C1(CNC(=O)c2ccc(S(C)(=O)=O)cc2)CCCCC1 | inactive: 4.36% |
| O=C(/C=C/c1ccccc1)OC1CN2CCC1CC2 (centres undefined) | inactive: -7.74% |
| CCCC1OP(=O)(Nc2ccccc2)OCC1CC (centres undefined) | inactive: 0.99% |
| O=P1(Nc2ncccn2)COc2ccccc2OC1 | inactive: -11.3% |
| Nc1cccc([As](=O)(O)c2ccccc2)c1 | inactive: 9.76% |

| SMILES | inhibition |
| --- | --- |
| NS(=O)(=O)c1cccc(NC(=O)COC(=O)C(O)(c2ccccc2)c2ccccc2)c1 | inactive: -3.9% |
| O=P1(Nc2ccc(Br)cn2)COc2ccccc2OC1 | inactive: -1.93% |
| Cc1ccc(OCC(=O)OC2CN3CCC2CC3)cc1 (centres undefined) | inactive: -14.8% |
| O=[As](O)(c1cccs1)c1cccs1 | inactive: -11.9% |
| CCOC(=O)Nc1ccc([As](=O)(O)O)c(O)c1 | inactive: -12.2% |
| CC1CCNP(=O)(N(CCCl)CCCl)O1 (centres undefined) | inactive: -1.86% |
| CCCCOc1ccc(C(=O)NCC2(N3CCCCC3)CCCCC2)cc1OC | inactive: 5.74% |
| Cc1cc(SC(NC(=O)c2ccccc2)C(Cl)(Cl)Cl)nc(C(C)C)n1 (centres undefined) | inactive: -17.9% |
| CCOC(=O)Nc1cccc([As](=O)(O)O)c1 | inactive: 2.89% |
| Cc1cc(SC(NC=O)C(Cl)(Cl)Cl)ncn1 (centres undefined) | inactive: 8.07% |
| O=P(Nc1ccccn1)(c1cccc2ccccc12)c1cccc2ccccc12 | inactive: 1.61% |
| O=[N+]([O-])c1ccc(Nc2ccc(Oc3ccc([N+](=O)[O-])cc3[N+](=O)[O-])cc2)c([N+](=O)[O-])c1 | inactive: -6.85% |
| COP1(=S)c2c(C)nn(CCC#N)c2N=C(c2ccc(F)cc2)N1C (centres undefined) | inactive: -8.3% |
| O=C(COc1ccccc1)OC1CN2CCC1CC2 (centres undefined) | inactive: -7.02% |
| O=C(Nc1ccncc1[N+](=O)[O-])c1ccc([N+](=O)[O-])cc1[N+](=O)[O-] | inactive: 2.19% |
| O=C(OC1CN2CCC1CC2)c1cccc([N+](=O)[O-])c1 (centres undefined) | inactive: -0.92% |
| CCOC(=O)c1ccc(NC(=O)C(C)(CCl)SC)cc1 (centres undefined) | inactive: -2.94% |
| CCC(C)N(CC(C)C)C(=S)SC(NC(C)=O)C(Cl)(Cl)Cl (centres undefined) | inactive: 2.38% |
| Cc1c2c(nc3ccccc13)SC(C(Cl)Cl)C2 (centres undefined) | inactive: 6.85% |
| O=C(OC1CN2CCC1CC2)C12CC3CC(CC(C3)C1)C2 (centres undefined) | inactive: -1.57% |

| SMILES | inhibition |
| --- | --- |
| Cc1cc(=O)[nH]c(N[N+](=O)[O-])n1 | inactive: -3.47% |
| O=P1(N(CCCl)CCCl)Nc2ccccc2N1 | inactive: -0.41% |
| O=P1(N(CCCl)CCCl)OCCCN1CCCl (centres undefined) | inactive: -5.95% |
| COc1ccc2nc(NP(=O)(c3ccccc3)c3ccccc3)sc2c1 | inactive: 0.38% |
| COc1cc(I)ccc1[As](=O)(O)O | inactive: -10.8% |
| O=[N+]([O-])c1cc(Oc2ccc([N+](=O)[O-])cc2C(F)(F)F)cc([N+](=O)[O-])c1 | inactive: -5.19% |
| COc1ccc(N/C(=N/P(=O)(N2CCOCC2)N2CCOCC2)N2CCOCC2)cc1 | inactive: 1.68% |
| C[As](=O)(O)c1cccc(C(=O)O)c1 | inactive: -0.38% |
| O=[As](O)(c1ccc(O)cc1)c1ccccc1O | inactive: -10.6% |
| COc1cc(C(=O)NCC2(N3CCOCC3)CCCCC2)ccc1OCC(C)C | inactive: -1.59% |
| O=[N+]([O-])c1ccc(-c2cc([N+](=O)[O-])c(O)c([N+](=O)[O-])c2)cc1 | inactive: 3.35% |
| Cc1ccc(OP(=O)(Nc2ccc([N+](=O)[O-])cn2)Oc2ccc(C)cc2)cc1 | inactive: -0.23% |
| Cc1ccc2nc3c(c(C)c2c1)CC(C(Cl)Cl)S3 (centres undefined) | inactive: -27.7% |
| ClCCSc1nnc(-c2cccnc2)o1 | inactive: -2.96% |
| CC(C)c1ccc(OP(=O)(Nc2ccccn2)Oc2ccccc2F)cc1 (centres undefined) | inactive: -10.4% |
| COC(=O)C1(C)COP(=O)(N2CCCCCC2)OC1 (centres undefined) | inactive: -13.1% |
| CCN(CC)C(=S)SC(NC=O)C(Cl)(Cl)Cl (centres undefined) | inactive: -2.34% |
| O=C(OC1CN2CCC1CC2)c1cccc2[nH]cnc12 (centres undefined) | inactive: -4.09% |
| O=[N+]([O-])c1cc([N+](=O)[O-])c(-c2ccn[nH]2)s1 | inactive: -9.09% |
